Measured values: patent publication US8324345B2, “HLA-binding peptide, precursor thereof, DNA fragment and recombinant vector encoding the same” (priority 2006, dated 2012)

Molecular target: HLA-A2 molecule (the product of HLA-A*0201 gene) (Homo sapiens, UniProt P04439, D140Y/D185E/D98H/E176V/E277Q/G131W/G231S/I119V/I121R/I166T/I218V/L300P/L318F/N151K/N90K/P208A/P217A/Q86G/Q94H/R138H/R169H/T345S)
Assay: Binding experiment of the peptides to an HLA-A0201 molecule (JY cells, flow cytometry)

CC[C@H](C)[C@H](NC(=O)[C@H](CC(C)C)NC(=O)[C@@H](N)CCCNC(=N)N)C(=O)N[C@H](C(=O)N[C@H](C(=O)N[C@@H](CC(N)=O)C(=O)N1CCC[C@H]1C(=O)N[C@H](C(=O)N[C@H](C(=O)O)C(C)C)[C@@H](C)CC)C(C)C)[C@@H](C)O [compound 31]
Kd: 2290 nM
